Patent publication US6458748B1, “Di- or tri-fluoromethanesulfonyl anilide derivatives, process for the preparation of them and herbicides containing them as the active ingredient” (Ihara Chemical Industry Co., Ltd., priority 1998, dated 2002)

Test system: SD-strain pregnant rats

Molecule: CCc1cccc(C(O)c2nc(OC)cc(OC)n2)c1NS(=O)(=O)C(F)F (stereo not shown) [Example 3, 2-[(4,6-dimethoxypyrimidine-2-yl)hydroxymethyl]-6-ethyl-N-difluoromethanesulfonyl anilide]
- Teratology Test results (1000 mg/kg/day oral, 6th to 15th day of pregnancy, examined 20th day): Pass

Molecule: 2-[(4,6-dimethoxypyrimidine-2-yl)hydroxymethyl]-6-methoxymethyltrifluoromethanesulfonyl anilide [Example 4]
- Teratology Test results (400 mg/kg/day oral, 6th to 15th day of pregnancy, examined 20th day): Pass

Molecule: COc1cc(OC)nc(C(O)c2ccccc2NS(=O)(=O)C(F)F)n1 (stereo not shown) [Example 1, 2-[(4,6-dimethoxypyrimidine-2-yl)hydroxymethyl]-N-difluoromethanesulfonyl anilide]
- Teratology Test results (450 mg/kg/day oral, 6th to 15th day of pregnancy, examined 20th day): Pass

Molecule: COCc1cccc(C(O)c2nc(OC)cc(OC)n2)c1NS(=O)(=O)C(F)F (stereo not shown) [Example 2, 2-[(4,6-dimethoxypyrimidine-2-yl)hydroxymethyl]-6-methoxymethyl-N-difluoromethanesulfonyl anilide]
- Teratology Test results (550 mg/kg/day oral, 6th to 15th day of pregnancy, examined 20th day): Pass

Molecule: COc1cc(OC)nc(C(O)c2ccccc2NS(=O)(=O)C(F)(F)F)n1 (stereo not shown) [Comparative Compound, 2-[(4,6-dimethoxypyrimidine-2-yl)hydroxymethyl]-N-trifluoromethanes ulfonyl anilide, reference compound]
- Teratology Test results (rat, in vivo): Fail
- external malformation in the gross examination of fetus (rat, in vivo, po): the ectrodactyly and brachydactyly of front leg were seen
- fetus weight in the fetal examination (rat, in vivo, po): decrease in fetus weight was seen

Read-outs that look alike come from different tables or passages of the source.
